From patent publication US9708413B2, “Glycosylated linker, compound containing glycosylated linker moiety and physiologically active substance moiety or salt thereof, and methods for producing said compound or salt thereof” (Glytech, Inc., priority 2012, dated 2017)

Experiment: Autocatalytic cleavage of the glycosylated linker moiety in aqueous solution, traced by HPLC (elimination half-life)
Description: To each sampled solution, a 0.5% aqueous TFA solution (28 μL) was added, and this solution was then frozen. The obtained solution was dissolved immediately before HPLC analysis, and a 50 μL aliquot thereof was injected and analyzed by HPLC [column: SHISEIDO CAPCELL PAK C18 UG-120 (5 μm), φ4.6×250 mm, flow rate: 0.7 mL/min, eluent A: 0.1% TFA in water, eluent B: 0.09% TFA/10% water/90% acetonitrile, gradient A:B=77:23→50:50 (20 min) linear concentration gradient elution]. The compound was detected using a diode array detector with a detection wavelength set to 220 nm.

Compound	Cleavage time compared with the conjugate with unprotected N terminus (both at pH 4.0 and at pH 7.4)	Abundance after 6 hours into the test (HPLC) (PBS, 37° C., pH 7.4, 6 hours)
CC(=O)N[C@@H]1[C@@H](O)[C@H](O[C@@H]2O[C@H](CO)[C@@H](O[C@@H]3O[C@H](CO[C@H]4O[C@H](CO)[C@@H](O)[C@H](O)[C@@H]4O[C@@H]4O[C@H](CO)[C@@H](O[C@@H]5O[C@H](CO)[C@H](O)[C@H](O)[C@H]5O)[C@H](O)[C@H]4NC(C)=O)[C@@H](O)[C@H](O[C@H]4O[C@H](CO)[C@@H](O)[C@H](O)[C@@H]4O[C@@H]4O[C@H](CO)[C@@H](O[C@@H]5O[C@H](CO)[C@H](O)[C@H](O)[C@H]5O)[C@H](O)[C@H]4NC(C)=O)[C@@H]3O)[C@H](O)[C@H]2NC(C)=O)[C@@H](CO)O[C@H]1NC(=O)CC(NC(=O)OCC1c2ccccc2-c2ccccc21)C(=O)N1CCN(CCNC(=O)c2ccccc2C(=O)N[C@@H](Cc2ccc(O)cc2)C(=O)N[C@@H](Cc2ccccc2)C(=O)N2CCC[C@H]2C(=O)NCC(=O)N[C@@H](CCC(N)=O)C(=O)N[C@@H](Cc2ccccc2)C(=O)N[C@@H](C)C(=O)N[C@@H](Cc2ccccc2)C(=O)N[C@@H](CO)C(=O)O)CC1 (some centres unmarked) [compound 7, glycosylated (Fmoc-Asn (asialo)-type) linker-chemerin 9 conjugate]	delayed cleavage time	–
chemerin 9 [compound 3, reference compound]	–	present in a large amount
